Tested on: Phosphodiesterase (PDE) IV
Test: Action to Phosphodiesterase (PDE) IV Enzyme Activities (3H-cAMP hydrolysis, enzyme from U-937 cells)
Type: biochemical
Conditions: read-out: PDE IV inhibitory activity IC50; human histiocytic lymphoma (U-937) cytoplasm fraction enzyme; 0.4 μM 3H-cAMP; pH 8.0; 15 minutes at 30° C.
Method: Action to Phosphodiesterase (PDE) IV Enzyme Activities
Enzyme was partialy purified from human histiocytic lymphoma(U-937) cytoplasm fraction by means of the Q-sepharose column according to the method of Nicholson and collaborators [Br. J. Pharmacol., 97, 889 (1989)], and was reacted in a solution of 0.1 mg/ml BSA (bovine serum albumin), 1 mM EDTA (ethylenediaminetetra acetic acid), 5 mM MgCl2 and 50 mM Tris-buffer (pH 8.0) for 15 minutes at 30° C. using 0.4 μM ^3 H-cAMP as substrate according to the method of Hidaka and collaborators [Biochem. Med., 10, 301 (1974)]. ^3 H-5'-AMP generated was separated by means of the cation exchange column, and the enzyme activity was determined by measuring a radioactivity amount.
A test compound was added. After incubation for 15 minutes at 30° C., the substrate was added. Inhibition ratios were derived for respective concentrations assuming that the reaction without the test compound was 100%. By using the probit analysis, the concentration (IC50) showing the inhibition rate of 50% was derived.

COc1ccc(C2CCN(C(=O)Oc3cccnc3)C2)cc1OC1CCCC1 (stereo not shown)
IC50: 0.014 µM

Reference: US5545647A, “3-phenylpyrrolidine derivatives” (Mitsubishi Chemical Corporation, priority 1994, dated 1996)
